We go through one substance from US20050182029A1, “Metformin salts of lipophilic acids” (Sonus Pharmaceuticals, Inc., priority 2002, published 2005).

The conditions of the data set: rat, in vivo.

For metformin tocopherol phosphate (1:2), the “colonic absorption compared to metformin hydrochloride” value is “absorbed much faster and more extensively than metformin hydrochloride”.
